Laboratory results as given in US11648222B2, “Use of CYP26-resistant RAR alpha selective agonists in the treatment of cancer” (Io Therapeutics, Inc., priority 2015, dated 2023).

Test system: BM stromal cells
Test: Effect of soluble factors on CYP26A1 expression in BM stromal cells
Type: cell-based
Conditions: soluble factor added to BM stromal cells
Protocol: qRT-PCR. Total RNA was extracted using the RNeasy Mini Kit (QIAGEN) according to the manufacturer's instructions. cDNA was synthesized by reverse transcription using the iScript cDNA Synthesis Kit (Bio-Rad). qRT-PCR was performed with iTaq SYBR Green Supermix (Bio-Rad) using sequence specific primers. Gene expression was normalized to GAPDH, and relative quantification was calculated using ΔΔCt. All experiments were performed in duplicate and run on the Bio-Rad CFX96 machine.
MM cells produce a variety of soluble factors including cytokines (IL-1, IL-3, IL-6, TNF-α) as well as Hedgehog ligands such as sonic hedgehog (SHH), which could impact the BM stromal compartment. Therefore, it was determined whether any of these factors was responsible for the observed upregulation of CYP26A1 on BM stromal cells. […] Consistent with this, there was a statistically significant correlation between the mRNA levels of SHH in MM cells and activation of stromal Hedgehog signaling as determined by protein patched homolog 1 (PTCH1) expression. […] SHH has a half-life of less than 1 hr, which may explain the reduced effect of MM-conditioned media on stromal CYP26A1 expression compared with that observed in coculture and Transwell experiments.

B1: IL-3: cytokine, soluble factor produced by MM cells (protein, UniProt P08700 20-152, looked up)
Interleukin-3: APMTQTTPLKTSWVNCSNMIDEIITHLKQPPLPLLDFNNLNGEDQDILMENNLRRPNLEAFNRAVKSLQNASAIESILKNLLPCLPLATAAPTRHPIHIKDGDWNEFRRKLTFYLKTLENAQAQQTTLSLAIF
Q: With B1 as the molecule, how does the “upregulation of CYP26A1 on BM stromal cells” value read?
A: no significant effects
